This is an account of results in patent publication US11591313B2, “Inhibitors of ectonucleotide pyrophosphatase/phosphodiesterase 1 (ENPP1) and methods of use thereof” (Stingray Therapeutics, Inc., priority 2020, dated 2023).

The chains behind the UniProt entries cited, without tags or fusion partners. Where a name states a change or a piece, a line headed by the entry shows the natural chain unless it says otherwise.
UniProt P22413: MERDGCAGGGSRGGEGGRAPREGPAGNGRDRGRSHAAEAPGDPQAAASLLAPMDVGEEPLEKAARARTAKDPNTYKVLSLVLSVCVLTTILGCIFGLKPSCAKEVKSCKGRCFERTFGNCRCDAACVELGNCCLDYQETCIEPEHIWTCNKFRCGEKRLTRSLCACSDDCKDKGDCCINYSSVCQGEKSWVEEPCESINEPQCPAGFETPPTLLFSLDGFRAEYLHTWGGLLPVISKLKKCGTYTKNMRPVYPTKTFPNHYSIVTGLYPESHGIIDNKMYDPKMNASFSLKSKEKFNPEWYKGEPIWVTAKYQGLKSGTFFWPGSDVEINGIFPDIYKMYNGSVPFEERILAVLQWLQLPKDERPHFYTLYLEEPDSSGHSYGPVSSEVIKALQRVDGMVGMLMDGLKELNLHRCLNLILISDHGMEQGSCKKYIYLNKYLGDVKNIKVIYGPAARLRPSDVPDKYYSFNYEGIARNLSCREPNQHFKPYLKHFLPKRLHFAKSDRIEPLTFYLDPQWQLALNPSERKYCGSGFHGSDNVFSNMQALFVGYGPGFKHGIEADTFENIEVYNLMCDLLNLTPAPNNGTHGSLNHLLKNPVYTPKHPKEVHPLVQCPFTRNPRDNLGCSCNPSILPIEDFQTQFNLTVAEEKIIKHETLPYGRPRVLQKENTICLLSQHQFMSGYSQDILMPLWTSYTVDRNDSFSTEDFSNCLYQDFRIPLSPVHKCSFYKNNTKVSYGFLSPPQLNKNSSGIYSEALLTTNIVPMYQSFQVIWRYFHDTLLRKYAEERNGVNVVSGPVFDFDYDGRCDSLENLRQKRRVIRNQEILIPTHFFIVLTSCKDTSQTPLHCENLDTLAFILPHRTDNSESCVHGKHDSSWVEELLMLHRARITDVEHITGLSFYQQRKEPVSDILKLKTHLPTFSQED

The assay addresses Recombinant Human ENPP-1 Protein (Homo sapiens (Human), UniProt P22413). The assay is described as follows: ENPP1 Assay (TMP). It is filed as biochemical.

Molecules are shown by their SMILES. Counter-ions that a name gives are not always drawn.

For `COc1cc2ncnc(N3CC4CC3CN(S(N)(=O)=O)C4)c2cc1OC` (stereo not shown) [Compound 027, 6-(6,7-dimethoxyquinazolin-4-yl)-3,6-diazabicyclo[3.2.1]octane-3-sulfonamide hydrochloride], the IC50 – broadly, the midpoint of a concentration-inhibition curve – turned out to be 21 nM.
